Measurements taken from PubChem BioAssay AID1259332 (Broad Institute, 2017).

Tested on: B cell line, CD40 signaling inhibition reporter
Assay: inhibitors of CD40 signaling, dose response, B cell lineage (AID 1259332);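 note: cells stimulated with CD40 ligand tCD40L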

With `CCC1=CC2Cc3nc4ccc(Cl)cc4c(N)c3C(C1)C2` (stereo unspecified) the AC50 was 9.51 µM.
